# Paper PMC11050087, “Polyphenols from Maackia amurensis Heartwood Protect Neuronal Cells from Oxidative Stress and Prevent Herpetic Infection” (International Journal of Molecular Sciences, 2024)
# Values joined by “and” are separate entries in the source; they are usually repeats but may differ in a detail not shown here. Equal values may be shown once.
# Assays:
# [1] = test system: HSV-1; test: Virucidal activity, CPE inhibition assay (HSV-1 pretreated with compounds); format: cell-based, HSV-1 strain L2; details: ratio of CC50 to IC50; virucidal scheme
# Experimental: The antiviral activity of polyphenols from M. amurensis against HSV-1 was assessed using the cytopathic effect inhibition (CPE) assay. To study the inhibitory effect of polyphenolic compounds directly on the HSV-1 virus (direct virucidal activity), the monolayer of Vero cells grown on 96-well plates (1 × 10^4 cells/well) was infected with the virus (100 TCD50/mL), pretreated with different concentrations of polyphenolic compounds.
# The HSV-1 strain L2 obtained from N.F. Gamaleya Federal Research Centre for Epidemiology and Microbiology (Moscow, Russia) was grown in Vero cells as previously described.
# We determined the direct inhibitory effect of polyphenolic compounds from M. amurensis heartwood on HSV-1 (virucidal effect). We mixed the virus at an infectious dose (100 TCID50/mL) with polyphenolic compounds (from 0.1 to 100 µg/mL) at a ratio of 1:1 (v/v) and incubated for an hour at 37 °C. Then, we infected the monolayer of Vero cells grown on 96-well plates (1 × 10^4 cells/well) with HSV-1 pretreated with the studied compounds. […]
# We previously described this method in detail in [22]. […] The viral inhibition rate (IR, %) was calculated according to Equation (1):(1) IR, %=Atv−Acv/Acd−Acv×100, where Atv is the absorbance of cells infected with HSV-1 pretreated with the studied compounds,
# We calculated the selectivity index (SI) as the ratio of CC50 to IC50. […]
# [2] = Cytotoxicity against Vero cells (MTT assay); details: African green monkey
# Experimental: We prepared the stock solutions of the tested compounds (10 mg/mL) in DMSO (Sigma, St. Louis, MO, USA). For the MTT assay and further studies of anti-HSV-1 activity, we diluted the stock solutions with DMEM so that the final concentration of DMSO was 0.5%.
# We used MTT assay to determine the cytotoxic effect of the tested compounds against Vero cells. We performed the MTT assay as previously described.
smiles,measurement,setting,value
"O=c1c(-c2ccc(O)cc2)coc2cc(O)cc(O)c12 [Compound 2, genistein]",SI,[1],8.0 and 8.0 ± 1.0
same,CC50,[2],134 µg/mL and 496 µM
